In publication PMC6251811 (Acta Pharmaceutica Sinica. B, 2018):

Assays:
Format in all cases: cell-based, human
IRF3 mRNA [1] = assay: IRF3 mRNA quantitative PCR in SH-SY5Y cells; details: IFN-α2a treatment for 1 h
SH-SY5Y cells = assay: CCK8 cytotoxicity assay in SH-SY5Y cells; details: IFN-α2a up to 800 IU/mL (data not shown)
IRF3 mRNA [2] = assay: IRF3 mRNA quantitative PCR in HEK cells; details: IFN-α2a treatment for 1 h
IRF7 mRNA [3] = assay: IRF7 mRNA quantitative PCR in HEK-Blue IFNα/β cells; details: IFN-α2a treatment for 1 h
[4] = tested on: type-I interferon signaling pathway; assay: SEAP reporter gene assay in HEK-Blue IFNα/β cells stimulated with IFN-α2a; details: IFN-α2a titration 0.128 to 10,000 IU/mL
IRF7 mRNA [5] = assay: IRF7 mRNA quantitative PCR in SH-SY5Y cells; details: IFN-α2a treatment for 1 h

## IFN-α2a: Recombinant human IFN-α2a produced by Escherichia coli expressing Cys24-Glu188; stimulus of the assays
IRF3 mRNA [1]
  IRF3 mRNA level: 1.03±0.04 folds
SH-SY5Y cells
  effect on cell viability: did not affect cell viability
IRF3 mRNA [2]
  IRF3 mRNA level: 1.25±0.15 folds
IRF7 mRNA [3]
  IRF7 mRNA transcription level compared to untreated controls: 2.09±0.16 folds
[4]
  EC80 of IFN-α2a: 150 IU/mL
IRF7 mRNA [5]
  IRF7 mRNA transcription level compared to untreated controls: 2.69±0.26 folds
